# Results published in publication PMC4167179 (Results in Pharma Sciences, 2012).
# By UniProt entry, the sequences of proteins in these tests, tags left out. Where a name states a change or a piece, a line headed by the entry shows the natural chain unless it says otherwise.
# UniProt P01275: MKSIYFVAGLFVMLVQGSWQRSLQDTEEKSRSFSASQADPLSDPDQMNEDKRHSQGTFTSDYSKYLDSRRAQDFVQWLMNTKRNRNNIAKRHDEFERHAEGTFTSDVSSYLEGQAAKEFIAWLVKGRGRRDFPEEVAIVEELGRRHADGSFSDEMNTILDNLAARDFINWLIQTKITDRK
# Biological target: T1, GLP-1 receptor (Rattus norvegicus, UniProt P32301)
# T1 sequence (P32301 22-463): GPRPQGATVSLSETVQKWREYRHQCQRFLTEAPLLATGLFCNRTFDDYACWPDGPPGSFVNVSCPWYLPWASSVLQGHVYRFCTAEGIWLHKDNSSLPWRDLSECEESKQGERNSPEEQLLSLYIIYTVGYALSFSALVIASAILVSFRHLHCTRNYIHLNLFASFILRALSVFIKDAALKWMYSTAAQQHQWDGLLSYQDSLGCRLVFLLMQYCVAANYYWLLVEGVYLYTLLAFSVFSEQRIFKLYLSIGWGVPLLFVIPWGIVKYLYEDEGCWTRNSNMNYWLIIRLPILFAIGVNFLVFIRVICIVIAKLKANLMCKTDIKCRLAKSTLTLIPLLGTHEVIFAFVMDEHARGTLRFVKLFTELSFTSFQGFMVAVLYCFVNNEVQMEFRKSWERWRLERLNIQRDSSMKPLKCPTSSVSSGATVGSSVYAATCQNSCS
# Assay: Adenylyl cyclase
# Type: biochemical
# Details: read-out: In vitro cAMP stimulation in plasma membranes of rat β-cell line RIN-m5F, EC50; 30 °C, 10 min, 10 μM GTP; mean ± SEM of three experiments
substance,measurement,value
"GLP-1-(7-36)-(T11Q–Q23N)-amide-Q^11-PEG 5 kDa (HAEGQFTSDVSSYLEGNAAKEFIAWLVKGR; Glucagon-like peptide 1(7-36) C-terminal amide; 5 kDa PEG at Q11; UniProt P01275 98-127, looked up, variant T11Q Q23N)",EC50,153 ± 3 nM
